Experimental data taken from ChEMBL document CHEMBL5356978, “Design, synthesis, and biological evaluation of novel 8-substituted quercetin derivatives targeting the β‑catenin/B-cell lymphoma 9 interaction” (Bioorg Med Chem Lett, 2024).

Protein sequences, listed by entry. Tags and fused reporters are not part of them.
UniProt P35222, whole entry: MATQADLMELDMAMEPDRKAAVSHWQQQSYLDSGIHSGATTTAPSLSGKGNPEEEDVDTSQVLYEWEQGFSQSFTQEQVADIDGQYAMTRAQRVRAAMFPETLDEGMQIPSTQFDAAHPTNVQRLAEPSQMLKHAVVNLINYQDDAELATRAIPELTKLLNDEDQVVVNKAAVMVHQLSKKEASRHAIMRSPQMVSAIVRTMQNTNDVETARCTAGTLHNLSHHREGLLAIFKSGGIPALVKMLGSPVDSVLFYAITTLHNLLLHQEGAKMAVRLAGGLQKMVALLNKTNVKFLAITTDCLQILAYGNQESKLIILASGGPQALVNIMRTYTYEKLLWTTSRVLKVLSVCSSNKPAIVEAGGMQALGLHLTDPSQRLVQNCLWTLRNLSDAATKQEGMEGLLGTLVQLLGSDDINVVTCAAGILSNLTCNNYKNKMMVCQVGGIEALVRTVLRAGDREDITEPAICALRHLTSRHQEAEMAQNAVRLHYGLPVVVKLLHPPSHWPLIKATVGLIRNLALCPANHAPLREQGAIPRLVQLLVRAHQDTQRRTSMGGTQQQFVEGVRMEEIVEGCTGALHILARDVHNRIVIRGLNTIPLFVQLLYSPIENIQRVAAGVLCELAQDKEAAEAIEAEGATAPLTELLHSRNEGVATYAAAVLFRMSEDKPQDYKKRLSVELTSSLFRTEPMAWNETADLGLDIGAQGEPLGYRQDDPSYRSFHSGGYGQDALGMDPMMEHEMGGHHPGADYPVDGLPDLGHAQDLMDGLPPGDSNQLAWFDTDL

Target: Catenin beta-1 (Homo sapiens, UniProt P35222)
Experiment: Binding affinity to full length beta-catenin (unknown origin) assessed as dissociation constant by SPR analysis

O=c1c(O)c(-c2ccc(O)c(O)c2)oc2cc(O)cc(O)c12 [QUERCETIN]
Kd: 4.99 µM
